From PubChem BioAssay AID504375 (National Center for Advancing Translational Sciences (NCATS), 2011)
The entries are a selection whose mix differs from that of the whole data set. Results filed as inconclusive are left out. Active and inactive are the calls of the source. The call rests on the fitted dose curve; in most records, active means well fitted inhibition curve with a large enough effect; inconclusive means small, poorly fitted or top-dose-only effect, or effect the other way; inactive means no such curve, though single readings can be large or run the other way.
On the % scale 0 is the no-effect control and ±100 the full control effect.

The chains behind the UniProt entries cited, without tags or fusion partners.
UniProt Q01196, whole entry, looked up: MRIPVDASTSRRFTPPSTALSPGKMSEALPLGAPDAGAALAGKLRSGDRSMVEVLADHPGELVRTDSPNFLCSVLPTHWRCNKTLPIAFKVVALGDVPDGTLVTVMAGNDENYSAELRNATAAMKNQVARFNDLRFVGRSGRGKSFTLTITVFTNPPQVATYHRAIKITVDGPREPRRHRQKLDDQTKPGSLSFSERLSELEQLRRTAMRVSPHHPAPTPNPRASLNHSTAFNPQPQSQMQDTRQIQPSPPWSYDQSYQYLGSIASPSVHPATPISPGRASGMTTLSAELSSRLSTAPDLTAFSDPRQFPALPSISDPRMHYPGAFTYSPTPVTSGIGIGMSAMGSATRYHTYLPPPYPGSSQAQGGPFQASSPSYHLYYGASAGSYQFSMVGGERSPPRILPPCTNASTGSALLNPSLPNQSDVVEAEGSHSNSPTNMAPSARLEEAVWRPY
UniProt Q13951, whole entry, looked up: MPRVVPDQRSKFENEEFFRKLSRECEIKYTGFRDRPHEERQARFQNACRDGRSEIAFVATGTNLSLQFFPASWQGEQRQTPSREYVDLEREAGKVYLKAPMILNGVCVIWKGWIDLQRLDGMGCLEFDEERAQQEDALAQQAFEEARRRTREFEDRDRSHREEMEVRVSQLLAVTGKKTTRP

These molecules were tested against Runt-related transcription factor 1 (Homo sapiens) + Core-binding factor subunit beta (Homo sapiens) (UniProt Q01196+Q13951) (assay: qHTS Assay for Compounds Blocking the Interaction Between CBF-beta and RUNX1 for the Treatment of Acute Myeloid Leukemia: Hit Validation with Orthogonal Assay). Conditions: CBFbeta-RUNX1 binding orthogonal assay, biochemical; at 41 µM (top of the series).
In the case of `N#CC1(Nc2ccccc2)CCN(Cc2ccccc2)CC1`, the activity change, negative = inhibition is reported as inactive: -7.03%.
